Reference: publication PMC7326497, “Membrane characteristics tune activities of endosomal and autophagic human VPS34 complexes” (eLife, 2020)

Target: T1, human VPS15, subunit of complexes I and II (human)
T1 construct: VPS15, human; expressed as HsVPS15-3xTEV-ZZ from the plasmid HsVPS34 + HsVPS15-3xTEV-ZZ; A 3xTEV site lies between VPS15 and ZZ; whether the tag was cut off is told only in Ohashi et al., 2016; The printed theoretical masses fit tag-free whole chains (my reckoning); also called HsVPS15; source: Expi293 cells, transfected, co-expressed with the other subunits, purified as a complex (method of …)
Experiment: SEC-MALS; purified, co-expressed human complex I at 1 mg/mL; Superose 6 10/300, 0.5 mL/min; measured 370 kDa against 363 kDa theoretical
Details: both partners purified

B1: human ATG14L, specific subunit of complex I (natural protein)
chain: not shown
notes: ATG14L, human; see Supplementary file 6; also called HsATG14L; Barkor; source: Expi293 cells, transfected, co-expressed with the other subunits, purified as a complex (method of Ohashi et al., 2016); not shown: ZZ (only in pYO1017)
  stoichiometry N: 1
